These results are taken from patent US10786505B2, “Administration of NEDD8-activating enzyme inhibitor and chemotherapeutic agents” (Millennium Pharmaceuticals, Inc., priority 2013, dated 2020).

The test system of this experiment is EPLC-272H. Kind of experiment: In vitro cell viability combination assay (CellTiter-Glo). Format: cell-based. Conditions: agent combined with MLN4924, vehicle PBS, 72 hr.

Take `N.N.O=C([O-])C1(C(=O)[O-])CCC1.[Pt+2]` [carboplatin]: the “Combination Index” value came to 1.62 ± 0.03 and the “Nonlinear Blending” value was −37 ± 2.
